This is a selection; strong and weak results do not stand in their true shares. Some of these compounds have results that are not shown, active ones among them. Activity calls are given as the source filed them.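 The calls were made as follows: active = signal enhancement of 30% or more; inactive = the rest.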
The compounds below were run against E3 ubiquitin-protein ligase Mdm2 (Homo sapiens) (UniProt Q00987) (assay: MDM2-luciferase reporter signal enhancers, primary screen, MDM2 E3 ligase inhibitor project, cell-based, luminescence, 1536-well (AID 1230)). Details: cell-based MDM2 ubiquitination luciferase reporter, 2 h; at 5 µM; stronger effect = higher value; 0 = plate control, 100 = twice control, blank-subtracted.
Outline: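 test system = mammalian cells stably expressing self-ubiquitinating, self-degrading MDM2 E3–luciferase fusion | quantity = 2000 cells/well | incubation = cell settling 4 h, compound treatment 2 h, both 37 °C | signal = luminescence with SteadyLite reagent, 15 min at room temperature | evaluation = % enhancement relative to plate controls after blank subtraction | benchmarks = plate controls and plate blanks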

Chains of the proteins cited; added tags and fusions are not shown.
UniProt Q00987, whole entry: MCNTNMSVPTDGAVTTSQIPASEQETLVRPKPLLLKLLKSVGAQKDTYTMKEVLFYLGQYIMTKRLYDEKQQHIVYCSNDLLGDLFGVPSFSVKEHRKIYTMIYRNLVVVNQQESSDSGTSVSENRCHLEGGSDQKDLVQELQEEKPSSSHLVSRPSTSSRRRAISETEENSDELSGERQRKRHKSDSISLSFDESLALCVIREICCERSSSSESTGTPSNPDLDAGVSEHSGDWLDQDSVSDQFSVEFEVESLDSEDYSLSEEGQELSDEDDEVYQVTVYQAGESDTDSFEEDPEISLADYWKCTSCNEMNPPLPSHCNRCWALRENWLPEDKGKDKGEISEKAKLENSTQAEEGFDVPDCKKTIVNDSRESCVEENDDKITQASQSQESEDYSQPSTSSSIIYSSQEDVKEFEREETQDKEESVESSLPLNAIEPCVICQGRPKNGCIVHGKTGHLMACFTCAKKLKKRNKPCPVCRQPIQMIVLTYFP

Row | SMILES | signal enhancement
1 | C=CCN1CCN(CCOC(=O)C(O)(c2ccccc2)c2ccccc2)CC1 | inactive: 3.8%
2 | CCN1CCCC(OC(=O)C2(O)c3ccccc3C=Cc3ccccc32)C1 (stereo unspecified) | inactive: -19%
3 | CN(C)C1CCCC1OC(=O)C(O)(c1ccccc1)c1ccccc1 (stereo unspecified) | inactive: -5.23%
4 | Cc1ccccc1C(=O)NCC1(N2CCCCC2)CCCCC1 | inactive: -25.3%
5 | CC(C)N1C(=O)CC2(CCN(CCOC(=O)C(O)(c3ccccc3)c3ccccc3)CC2)C1=O | inactive: -2.05%
6 | CCN(CC)CC(C)C(C)OC(=O)C(O)(c1ccccc1)c1ccccc1 (stereo unspecified) | inactive: -11.4%
7 | O=C(NCC1(N2CCCCC2)CCCCC1)c1cc([N+](=O)[O-])ccc1Cl | inactive: -18%
8 | COc1ccc(Br)c(C(=O)NCC2(N3CCCCC3)CCCCC2)c1 | inactive: -11%
9 | CN(C)c1cccc(C(=O)NCC2(N(C)C)CCCCC2)c1 | inactive: -9.51%
10 | O=C(OC1CN2CCC1CC2)C(CO)(c1ccccc1)c1ccccc1 (stereo unspecified) | inactive: -9.98%
11 | COc1cccc(C(=O)NCC2(N3CCCCC3)CCCCC2)c1 | inactive: -1.98%

Reference: PubChem BioAssay AID1230 (PCMD, 2008)
